Results published in publication PMC11121358, “Redox Properties of Bacillus subtilis Ferredoxin:NADP^+ Oxidoreductase: Potentiometric Characteristics and Reactions with Pro-Oxidant Xenobiotics” (International Journal of Molecular Sciences, 2024).

The chains behind the UniProt entries cited, without tags or fusion partners. Where a name states a change or a piece, a line headed by the entry shows the natural chain unless it says otherwise.
UniProt O05268: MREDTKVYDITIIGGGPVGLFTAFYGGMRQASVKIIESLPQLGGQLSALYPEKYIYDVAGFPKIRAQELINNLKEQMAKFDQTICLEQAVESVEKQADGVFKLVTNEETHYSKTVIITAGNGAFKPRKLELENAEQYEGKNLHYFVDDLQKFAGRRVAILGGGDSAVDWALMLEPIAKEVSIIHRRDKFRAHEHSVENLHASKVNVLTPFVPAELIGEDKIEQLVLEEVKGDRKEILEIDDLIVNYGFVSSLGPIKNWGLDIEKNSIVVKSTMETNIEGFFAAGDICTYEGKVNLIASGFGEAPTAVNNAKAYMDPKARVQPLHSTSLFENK

Molecular target: T1, Bacillus subtilis ferredoxin:NADP^+ oxidoreductase (BsFNR) (Bacillus subtilis, UniProt O05268)
T1 construct: gene yumC

Structure (SMILES): Cc1cc2nc3c(=O)[nH]c(=O)nc-3n(C[C@H](O)[C@H](O)[C@H](O)COP(=O)(O)OP(=O)(O)OC[C@H]3O[C@@H](n4cnc5c(N)ncnc54)[C@H](O)[C@@H]3O)c2cc1C [FAD]
- photoreduction and stopped-flow absorbance spectra of enzyme-bound FAD: spectral changes of the enzyme-bound FAD during the multiple turnovers
